Data published in US6096909A, “Taxoid anti-tumor agents and pharmaceutical compositions thereof” (The Research Foundation of State University of New York, priority 1997, dated 2000).
pIC50: −log10 of the molar value.

Assays:
[1] = system: MCF7-R (mammary carcinoma cells 180-fold resistant to adriamycin); assay: Tumor cell growth inhibition (SRB), 72 h; type: cell-based, human
[2] = system: multi-drug resistant phenotype human colon carcinoma cells HCT-116/VM; conditions: cited from earlier work

SMILES: CC(=O)O[C@H]1C(=O)[C@@]2(C)[C@H]([C@H](OC(=O)c3ccccc3)[C@]3(O)C[C@H](OC(=O)[C@H](O)[C@H](C=C(C)C)NC(=O)c4ccccc4)C(C)=C1C3(C)C)[C@]1(OC(C)=O)CO[C@@H]1C[C@@H]2O [RAH-1, 3'-dephenyl-3'-isobutenylpaclitaxel]
- activity ([1]; in words): only marginal activity
- pIC50 ([1]; read-out: concentration of compound which inhibit 50% (IC50) of the growth of human tumor cell line, 72 h drug exposure, mean of at least three experiments): 6.95
- activity compared with Taxoid Ia ([1]; relative to Taxoid Ia): one order of magnitude weaker
- times better activity than docetaxel ([2]; relative to docetaxel): 9 times
- times better activity than paclitaxel ([2]; relative to paclitaxel): about 20 times
